From patent publication US9138437B2, “Pyrimidine substituted purine compounds as kinase (S) inhibitors” (VERASTEM, INC., priority 2009, dated 2015)

Tests used:
physchem = conditions: pH 7, aqueous buffer, kinetic from dmso stock
in vitro = conditions: human, microsomes, pH 7.4

With `Cc1nc2c(-c3cnc(N)nc3)nc(N3CCOCC3)nc2n1C(C)C` [5-(9-isopropyl-8-methyl-2-morpholin-4-yl-9H-purin-6-yl)-pyrimidin-2-ylamine] the solubility (physchem) was 178 µM (≈ 63.1 µg/mL) and the half-life (in vitro) was > 1 h.

Values after ≈ are worked out from the molar mass of the structure shown.
